From patent US9751854B2 (Millennium Pharmaceuticals, Inc., priority 2014, dated 2017)

By UniProt entry, the sequences of proteins in these tests, tags left out.
UniProt Q8NEB9, whole entry: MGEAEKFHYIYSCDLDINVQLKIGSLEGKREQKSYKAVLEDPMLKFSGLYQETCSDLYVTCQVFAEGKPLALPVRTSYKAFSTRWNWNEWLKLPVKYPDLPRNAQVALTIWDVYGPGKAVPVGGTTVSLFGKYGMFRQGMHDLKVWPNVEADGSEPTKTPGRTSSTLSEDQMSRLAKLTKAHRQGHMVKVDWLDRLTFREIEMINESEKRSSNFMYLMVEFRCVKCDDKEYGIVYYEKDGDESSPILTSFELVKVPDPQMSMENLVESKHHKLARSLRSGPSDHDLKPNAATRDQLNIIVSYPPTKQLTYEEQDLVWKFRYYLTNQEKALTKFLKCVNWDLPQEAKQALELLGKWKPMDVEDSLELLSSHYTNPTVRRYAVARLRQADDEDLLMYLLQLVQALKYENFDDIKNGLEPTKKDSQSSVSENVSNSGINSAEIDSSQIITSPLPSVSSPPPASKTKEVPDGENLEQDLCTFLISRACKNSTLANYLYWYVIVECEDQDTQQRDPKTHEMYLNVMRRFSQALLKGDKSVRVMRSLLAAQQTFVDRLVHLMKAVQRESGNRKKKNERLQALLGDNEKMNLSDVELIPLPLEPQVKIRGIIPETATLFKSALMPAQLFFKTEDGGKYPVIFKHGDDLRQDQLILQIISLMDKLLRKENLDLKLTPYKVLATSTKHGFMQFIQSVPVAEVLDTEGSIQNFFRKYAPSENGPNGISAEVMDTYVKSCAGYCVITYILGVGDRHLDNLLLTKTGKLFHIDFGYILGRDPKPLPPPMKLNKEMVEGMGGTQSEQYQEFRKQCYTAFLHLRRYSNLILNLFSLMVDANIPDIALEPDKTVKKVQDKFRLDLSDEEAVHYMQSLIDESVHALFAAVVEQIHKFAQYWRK

Molecular target: human VPS34 (Homo sapiens (Human), UniProt Q8NEB9)
Test: Human VPS34 enzyme assay (Adapta TR-FRET ADP detection)
Assay type: biochemical

Question: `Cc1nccc(Nc2cc(-c3cc(NS(=O)(=O)N(C)C)c4ccnn4c3)ccn2)n1` [Compound I-421, N,N-dimethyl-N′-(6-[2-[(2-methylpyrimidin-4-yl)amino]pyridin-4-yl]pyrazolo[1,5-a]pyridin-4-yl)sulfuric diamide] was tested. Which IC50 did it give?
Answer: 10 to 50 nM
